# Measurements taken from US6703367B1, “Methods for treating hot flashes and gynaecomastia” (Praecis Pharmaceuticals Inc., priority 2001, dated 2004).
# Columns and labels:
# [1] = test system: patients with stage D1 or D2 metastatic prostate cancer or a rising PSA level after local therapy; test: Questionnaire on frequency, severity and duration of hot flashes, 4 weeks of treatment (Example 4); type: in vivo, human
# [2] = test system: patients with stage D1 or D2 metastatic prostate cancer or a rising PSA level after local therapy; test: Endocrine-related questionnaire: occurrence of hot flashes during treatment (Example 1); type: in vivo, human; conditions: for patients experiencing hot flashes: Example 1 treatment regimens
# [3] = test system: patients with stage D1 or D2 metastatic prostate cancer or a rising PSA level after local therapy; test: Questioning of treated patients on the occurrence of gynaecomastia (Example 2); type: in vivo, human; conditions: patients treated as in Example 1
# gynaecomastia = conditions: in vivo; cited from earlier work
# hot flashes = conditions: in vivo; cited from earlier work
substance,measurement,setting,value
"Ac-D-Nal^1, 4-Cl-D-Phe^2, D-Pal^3, N-Me-Tyr^5, D-Asn^6, Lys(iPr)^8, D-Ala^10-LHRH [PPI-149]",Duration of Hot Flashes: patients with 0-2 minutes,"[1]; 4 weeks of treatment, duration 0-2 minutes",31%
same,Duration of Hot Flashes: patients with 0 minutes,"[1]; 4 weeks of treatment, duration 0 minutes",61%
same,Duration of Hot Flashes: patients with ≧5 minutes,"[1]; 4 weeks of treatment, duration ≧5 minutes",8%
same,Severity of Hot Flashes: patients with mild-moderate hot flashes,"[1]; 4 weeks of treatment, mild-moderate",38%
same,Severity of Hot Flashes: patients with moderate-severe hot flashes,"[1]; 4 weeks of treatment, moderate-severe",0%
same,Occurrence of Hot Flashes: patients with 1-4 hot flashes/week,"[1]; 4 weeks of treatment, number of hot flashes/week 1-4",19%
same,Occurrence of Hot Flashes: patients with 5->10 hot flashes/week,"[1]; 4 weeks of treatment, number of hot flashes/week 5->10",20%
same,Severity of Hot Flashes: patients with severity 0,"[1]; 4 weeks of treatment, severity 0",62%
same,duration of hot flashes compared with leuprolide and anti-androgen,[1]; first 4 weeks of treatment,lasted for a shorter period of time
same,frequency of hot flashes compared with leuprolide and anti-androgen,[1]; first 4 weeks of treatment,experienced hot flashes less frequently
same,severity of hot flashes compared with leuprolide and anti-androgen,[1]; first 4 weeks of treatment,less severe
same,patients experiencing hot flashes,[2],did not experience hot flashes
same,Occurence of Hot Flashes,"[2]; patients with hot flashes / patients treated, PPI-149 at 30 mg/kg/day or 50 mg/kg/day, e.g. 14 or 28 days",0/8
same,occurrence of gynaecomastia compared with leuprolide depot,[3],experienced gynaecomastia to a lesser extent
CLOMIPHENE,side effects in gynaecomastia treatment,gynaecomastia,associated with adverse side-effects
Medthyldopa,side effects associated with the treatment,hot flashes,"fatigue, weakness, dizziness, and nausea"
Tamoxifen,side effects associated with the treatment,hot flashes,hot flashes are also the most frequent side effect
clonidine,side effects associated with the treatment,hot flashes,"drowsiness, constipation, orthostatic hypotension, dry mouth, headache, nausea, fatigue, and decreased libido"
leuprolide [reference compound],patients experiencing hot flashes,[2],more than half of the patients
